Biological target: human kinase Mps-1 (Homo sapiens, UniProt P33981)
Experiment: Mps-1 kinase assay (TR-FRET)
Settings: read-out: Mps-1 IC50; GST-tagged human full length recombinant Mps-1; 10 μM ATP; 1 μM peptide substrate; 60 min at 22° C.

Protein sequences, listed by entry. Tags and fused reporters are not part of them.
UniProt P33981, whole entry: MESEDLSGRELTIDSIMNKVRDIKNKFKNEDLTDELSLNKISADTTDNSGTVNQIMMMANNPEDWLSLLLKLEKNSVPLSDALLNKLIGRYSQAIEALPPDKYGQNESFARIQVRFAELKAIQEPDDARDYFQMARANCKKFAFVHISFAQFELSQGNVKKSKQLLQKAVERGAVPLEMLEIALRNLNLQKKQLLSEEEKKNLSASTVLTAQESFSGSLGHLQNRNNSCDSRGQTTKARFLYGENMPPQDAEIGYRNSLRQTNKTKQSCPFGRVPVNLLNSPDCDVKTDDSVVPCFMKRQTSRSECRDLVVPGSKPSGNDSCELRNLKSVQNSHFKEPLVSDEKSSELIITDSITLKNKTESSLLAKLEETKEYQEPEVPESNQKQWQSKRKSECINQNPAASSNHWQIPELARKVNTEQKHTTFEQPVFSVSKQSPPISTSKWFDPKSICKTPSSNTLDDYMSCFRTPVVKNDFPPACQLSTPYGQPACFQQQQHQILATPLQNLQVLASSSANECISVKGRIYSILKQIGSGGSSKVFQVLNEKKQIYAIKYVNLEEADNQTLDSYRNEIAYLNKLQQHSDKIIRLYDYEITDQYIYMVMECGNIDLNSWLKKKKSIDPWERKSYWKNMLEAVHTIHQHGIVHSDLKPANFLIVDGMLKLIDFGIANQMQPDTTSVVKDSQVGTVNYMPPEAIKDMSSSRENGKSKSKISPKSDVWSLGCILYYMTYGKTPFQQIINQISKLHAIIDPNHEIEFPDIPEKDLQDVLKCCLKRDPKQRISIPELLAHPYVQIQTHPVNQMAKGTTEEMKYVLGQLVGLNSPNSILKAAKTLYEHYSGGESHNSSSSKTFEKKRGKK

`CC(C)CNc1nc(-c2cccc(CC(N)=O)c2)cn2c(-c3ccc(C(=O)NC4CC4)cc3)cnc12` showed an IC50 of 1 nM.

From patent US20140135319A1, “6-SUBSTITUTED IMIDAZOPYRAZINES FOR USE AS MPS-1 AND TKK INHIBITORS IN THE TREATMENT OF HYPERPROLIFERATIVE DISORDERS” (BAYER INTELLECTUAL PROPERTY GMBH, priority 2010, published 2014)
